Measurements taken from patent US6582952B1 (priority 1997, dated 2003).

Test system: Bacillus licheniformis
Settings: 1 l of 15 g/l ONTA, 90 g biomass, 15 g/l sugar, pH about 6, 25° C., 24 hours

Compound: O=c1[nH]nc([N+](=O)[O-])[nH]1
- conversion of ONTA into the corresponding amine: greater than 80%

Only a part of the results on these compounds is given; other tests are left out.
